The numbers were not newly measured in patent US20240262917A1, “ANTIBODIES AGAINST ALK AND METHODS OF USE THEREOF” (Dana-Farber Cancer Institute, Inc., priority 2021, published 2024), which cites them from elsewhere.

This data set deals with ALK-positive NSCLC. To be noted: cited from earlier work.

For the compound `C[C@@H](Oc1cc(-c2cnn(C3CCNCC3)c2)cnc1N)c1c(Cl)ccc(F)c1Cl` [crizotinib], the “median duration of response” value was 10.9 months.

As for `CCc1cc2c(cc1N1CCC(N3CCOCC3)CC1)C(C)(C)c1[nH]c3cc(C#N)ccc3c1C2=O` [alectinib], the “median duration of response” value was 25.7 months.
